Reference: patent publication US5854049

What was measured:
[1] = target: purified human Glu-plasminogen (American Diagnostica, 98% Glu-type plasminogen) (human) (UniProt P00747)
[2] = target: purified human Glu-plasminogen (American Diagnostica, 98% Glu-type plasminogen) (human) (UniProt P00747); remark: listed apart in the source

rSK (fusion protein with maltose binding protein linked to the amino terminus of nSK)
amidolytic kinetic parameters of the SK-PAC on S2251: Km (µM), Kcat (S^-1), kcat/Km (µM^-1 S^-1) [1]: 0.276 µM^-1 S^-1
lag phase of plasminogen activation (S2251 hydrolysis, absorption at 405 nm, 21° C.) [2]: 150 s
